The nature of series [1]: western blot of FoxO1, ATDC5 cells. The settings on record: glycan gained; control: control lentivirus. On the technique in general: In western blotting, separated proteins are transferred to a membrane and probed.
Series [2] is described as follows: HA immunoprecipitation, ubiquitin blot. To be noted: glycan gained; control: HA-FoxO1 without OGT.

B1: FoxO1: OGT-overexpressing lentivirus (protein)
parent chain: MAEAPQVVETDPDFEPLPRQRSCTWPLPRPEFNQSNSTTSSPAPSGGAAANPDAAASLASASAVSTDFMSNLSLLEESEDFARAPGCVAVAAAAAASRGLCGDFQGPEAGCVHPAPPQPPPTGPLSQPPPVPPSAAAAAGPLAGQPRKTSSSRRNAWGNLSYADLITKAIESSAEKRLTLSQIYEWMVKSVPYFKDKGDSNSSAGWKNSIRHNLSLHSKFIRVQNEGTGKSSWWMLNPEGGKSGKSPRRRAASMDNNSKFAKSRGRAAKKKASLQSGQEGPGDSPGSQFSKWPASPGSHSNDDFDNWSTFRPRTSSNASTISGRLSPIMTEQDDLGDGDVHSLVYPPSAAKMASTLPSLSEISNPENMENLLDNLNLLSSPTSLTVSTQSSPGSMMQQTPCYSFAPPNTSLNSPSPNYSKYTYGQSSMSPLPQMPMQTLQDSKSSYGGLNQYNCAPGLLKELLTSDSPPHNDIMSPVDPGVAQPNSRVLGQNVMMGPNSVMPAYGSQASHNKMMNPSSHTHPGHAQQTASVNGRTLPHVVNTMPHTSAMNRLTPVKTPLQVPLSHPMQMSALGSYSSVSSCNGYGRMGVLHQEKLPSDLDGMFIERLDCDMESIIRNDLMDGDTLDFNFDNVLPNQSFPHSVKTTTHSWVSG
For the protein B1, the expression_or_secretion result in series [1] was “increases”.

B2: FoxO1: OGT co-transfection (protein)
parent chain: B1 parent chain
For the protein B2, the “other: ubiquitination” value in series [2] is “decreases”.
